# Source: PMC3356581 (Bioorganic & medicinal chemistry, 2012)
# Amino acid sequences for entries named in this document (tags omitted). Residues count along the entry.
# UniProt P35367, whole entry, species assumed: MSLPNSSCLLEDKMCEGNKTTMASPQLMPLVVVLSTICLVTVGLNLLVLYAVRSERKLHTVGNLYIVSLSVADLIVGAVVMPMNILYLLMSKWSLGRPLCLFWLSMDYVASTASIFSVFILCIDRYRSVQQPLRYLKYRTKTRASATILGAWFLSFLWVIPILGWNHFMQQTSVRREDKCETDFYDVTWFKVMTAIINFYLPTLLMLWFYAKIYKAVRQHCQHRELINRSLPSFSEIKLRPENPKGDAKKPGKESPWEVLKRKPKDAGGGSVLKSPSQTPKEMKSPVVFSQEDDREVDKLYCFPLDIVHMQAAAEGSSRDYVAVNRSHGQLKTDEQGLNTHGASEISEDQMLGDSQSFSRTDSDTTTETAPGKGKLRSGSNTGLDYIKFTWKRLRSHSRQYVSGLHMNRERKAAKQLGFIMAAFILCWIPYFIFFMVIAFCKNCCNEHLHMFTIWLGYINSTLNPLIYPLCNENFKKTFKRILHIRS
# UniProt P28335, 33-458: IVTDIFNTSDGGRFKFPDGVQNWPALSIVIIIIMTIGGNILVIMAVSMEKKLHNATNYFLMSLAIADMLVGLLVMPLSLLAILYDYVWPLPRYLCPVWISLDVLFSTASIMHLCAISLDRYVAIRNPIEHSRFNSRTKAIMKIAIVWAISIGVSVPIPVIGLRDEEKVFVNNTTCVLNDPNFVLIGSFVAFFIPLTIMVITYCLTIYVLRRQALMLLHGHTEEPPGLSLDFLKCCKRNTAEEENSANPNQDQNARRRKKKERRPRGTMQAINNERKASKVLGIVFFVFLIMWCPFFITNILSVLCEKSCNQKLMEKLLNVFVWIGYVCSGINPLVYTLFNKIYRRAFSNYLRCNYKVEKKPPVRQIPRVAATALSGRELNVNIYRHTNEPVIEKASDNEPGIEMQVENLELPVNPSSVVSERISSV
# Legend:
# Histamine H1 receptor = Histamine H1 receptor (Homo sapiens, UniProt P35367); conditions: read-out: Binding data, Ki ± SEM, previously reported; cited from earlier work
# 5-HT2C receptor = 5-HT2C receptor (Homo sapiens, UniProt P28335); test: NIMH-PDSP radioligand binding, 5-HT2C
SMILES,Ki (Histamine H1 receptor) [nM],"Binding data; Ki ± SEM, 5-HT2C (5-HT2C receptor)"
O=C(CCCN1CCN(c2ccc(Cl)cc2)CC1)c1ccc(F)cc1 [Compound 3],158 ± 36,–
"OC1(c2ccc(Cl)cc2)CC2CCC(C1)N2CCCOc1ccc(F)cc1 (centres unmarked) [Compound 7, 3-(4-Chlorophenyl)-8-(3-(4-fluorophenoxy)propyl)-8-azabicyclo[3.2.1]octan-3-ol]",–,MP (Missed primary assay threshold of 50% inhibition)
